Among the data in BindingDB's records for patent US10981904 (Cancer Research Technology, 2021) are IC50 values, retold here.

Molecules are shown by their SMILES.

The target in this assay is T1, Glutaminase kidney isoform, mitochondrial [63-669] (Homo sapiens, UniProt O94925).
T1 sequence (O94925 whole entry): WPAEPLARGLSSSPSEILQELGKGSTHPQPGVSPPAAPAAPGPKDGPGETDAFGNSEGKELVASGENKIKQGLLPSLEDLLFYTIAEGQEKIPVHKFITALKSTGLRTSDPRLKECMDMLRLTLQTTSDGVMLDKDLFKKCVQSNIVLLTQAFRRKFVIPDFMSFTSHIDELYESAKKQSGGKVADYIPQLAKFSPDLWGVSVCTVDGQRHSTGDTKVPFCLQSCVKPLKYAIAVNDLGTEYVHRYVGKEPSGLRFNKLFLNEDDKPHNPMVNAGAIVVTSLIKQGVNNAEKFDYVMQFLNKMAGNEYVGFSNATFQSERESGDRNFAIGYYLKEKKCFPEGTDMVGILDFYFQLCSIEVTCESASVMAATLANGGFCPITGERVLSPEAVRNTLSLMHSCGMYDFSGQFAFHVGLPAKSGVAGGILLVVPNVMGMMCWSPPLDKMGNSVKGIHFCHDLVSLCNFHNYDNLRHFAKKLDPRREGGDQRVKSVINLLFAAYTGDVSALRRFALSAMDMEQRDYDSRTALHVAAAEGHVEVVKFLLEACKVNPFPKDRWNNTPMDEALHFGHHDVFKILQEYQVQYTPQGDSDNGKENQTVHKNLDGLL
Nature of the assay: GLS Enzyme Potency Assay. How it is done:
A Glutamate Oxidase/AmplexRed coupled assay was used to measure the ability of compounds to bind to and inhibit the activity of GLS1 in vitro. […] GLS1 was diluted to 2× working concentration and incubated at room temperature to allow the tetrameric/dimeric forms to reach steady state. Assay measurements were performed in buffer comprising 50 mM TRIS pH 7.8, 100 mM NaPO4, pH 7.8, 0.001% v/v Tween20. […] DMSO concentration was maintained at 2% by back filling with DMSO solution. […] 3 μL of 100 mM glutamine diluted in assay buffer was then added and the reaction incubated at room temperature for 60 minutes. […] An artefact version of the assay where the 6His tagged GLS protein and glutamine were replaced with assay buffer was also used to rule out non specific effects on the assay components.

For the compound `CO[C@H](C(=O)Nc1nnc(N[C@@H]2CCN(c3cccnn3)C2)s1)c1ccc(F)c(OC(F)(F)F)c1` [US10981904, Example 20(b)], it took 64.1 nM to reach half-maximal inhibition (IC50).

In turn, `CCO[C@H](C(=O)Nc1nnc(N[C@@H]2CCN(c3cccnn3)C2)s1)c1cccc(OC(F)(F)F)c1` [US10981904, Example 19(b)] displayed an IC50 of 96.1 nM.

For orientation: IC50 means the concentration that inhibits the measured activity by half.
